Test results taken from patent publication US7390834B2, “Cyanophenoxy carboxylic acid compounds and compositions for delivering active agents” (Emisphere Technologies, Inc., priority 2000, dated 2008).

Tests used:
[1] = Oral delivery of rhGH in rats (serum rhGH immunoassay); settings: oral gavage, compound 200 mg/kg, rhGH 3 mg/kg, volume 1 ml/kg
[2] = Oral delivery of human insulin in rats (serum insulin ELISA); settings: no delivery agent, previous experiments
Method: Oral dosing (PO) compositions of delivery agent compound and human zinc insulin (minimum 26 IU/mg available from Calbiochem—Novabiochem Corp, La Jolla, Calif.) were prepared in deionized water. […] The solution was vortexed, then heated (about 37° C.) and sonicated. The pH was adjusted to about 7 to 8.5 with NaOH or HCl.
The typical dosing and sampling protocols were as follows. […] A dosing group of five animals was administered one of the dosing solutions. […] The dosing solution was administered by pressing the syringe plunger.
Serum insulin levels were determined with an Insulin ELISA Test Kit (Kit # DSL-10-1600 from Diagnostic Systems Laboratories, Inc., Webster, Tex.), modifying the standard protocol in order to optimize the sensitivity and linear range of the standard curve for the volumes and concentrations of the samples used in the present protocol. […] The five values for each time point were averaged and the results plotted as serum insulin concentration versus time.

Row | Substance | Peak Serum [rhGH] (ng/ml) ± SD (SE) [1] | levels of human insulin following oral dosing with human insulin alone [2]
1 | 3-(2-cyanophenoxy) acetic acid [Compound 1] | 0 ng/mL | 
2 | human insulin |  | no measurable levels
